Like-named read-outs stand apart in the source and are kept apart here.
What was measured:
HEP-G2 cells = assay: alamarBlue proliferation assay with HEP-G2 cells; details: read-out: Activity on HEP-G2: IC50, RPMI 1640 medium, 10% FBS
A-431 cells = assay: alamarBlue proliferation assay with A-431 cells; details: read-out: Activity on A-431: IC50, DMEM medium, 10% FBS
Source text: (§1) These hyperproliferative processes can be benign or malignant and include hyperplasia, neoplasia, cancer and pre-cancerous lesions, and metastases. The antiproliferative activities of compounds falling under general formula (I) were investigated on human primary epidermal keratinocytes (HPEK) and human, murine and canine cell lines derived from hyperproliferative tissue or different cancer types, including MDA-MB-231, ZR-75-30, HCC-1395, HCC-1937, and T-47D all originating from cancer of the breast, JURKAT, RPMI-8402, LOUCY, TANQUE, REC-1, HL-60, NB-4 all originating from different types of blood cancer including lymphoma and leukemia of T-cells, B-cells and myeloid cells, TT originating from cancer of the neuroendocrine system, HeLa originating from cancer of the cervix, 23132/87, SW-948, and HCT-116 all originating from cancer of the gastrointestinal tract including stomach and colon, BHY originating from cancer of the mucosal epithelium, A-431 originating from cancer of the skin, HEP-G2 originating from cancer of the liver, NCI-H460 and A-549 both originating from cancer of the lung, PANC-1 originating from cancer of the pancreas, U-87 MG originating from cancer of the brain, A-375 and RVH-421 both originating from cancer of melanocytes, SW-1353 originating from cancer of bone-derived chondrocytes, C2C12 a mouse cell line originating from hyperproliferative muscle progenitor cells, LL/2 a mouse cell line originating from cancer of the lung, CF21.T a dog cell line originating from cancer of the connective tissue. To this end, according cells were seeded into 96-well plates (CORNING #3598) suitable for fluorescence assays at following initial cell numbers: 1000 cells per well for HPEK; 3000 cells per well for MDA-MB-231, 8000 cells per well for ZR-75-30, 1500 cells per well for HCC-1395, 1500 cells per well for HCC-1937, 3000 cells per well for T-47D, 1500 cells per well for JURKAT, 5000 cells per well for RPMI-8402, 9000 cells per well for LOUCY, 1500 cells per well for TANQUE, 9000 cells per well for REC-1, 1000 cells per well for HL-60, 1000 cells per well for NB-4, 9000 cells per well for TT, 2000 cells per well for HeLa, 2000 cells per well for 23132/87, 9000 cells per well for SW-948, 700 cells per well for HCT-116, 1500 cells per well for BHY, 700 cells per well for A-431, 1500 cells per well for HEP-G2, 500 cells per well for NCI-H460, 1000 cells per well for A-549, 1500 cells per well for PANC-1, 2500 cells per well for U-87 MG, 700 cells per well for A-375, 1500 cells per well for RVH-421, 2000 cells per well for SW-1353, 500 cells per well for C2C12, 500 cells per well for LL/2, and 3000 cells per well for CF21.T. In a volume of 90 μL per well of culture medium the cells were treated with compounds at indicated final concentrations by adding 10 μL per well of 10× compound working solutions from 1:100 pre-diluted 1000× compound DMSO stock-solutions in H2O (Water For Injection, WFI, Fisher Scientific, Gibco™ #A12873) or with the empty carrier DMSO (AppliChem, #A3672) at 0.1% v/v as control yielding a final volume of 100 μL per well. At day 5 after starting the treatments the cells were subjected to the alamarBlue® Proliferation Assay (Bio-Rad Serotec GmbH, BUF012B) according to the protocol of the manufacturer. The readout was taken with a multi-well plate-reader (Tecan Spark®) in the fluorescence mode with applying a filter for excitation at 560 nm (band width 10 nm) and for emission at 590 nm (band width 10 nm). Treatment for maximum proliferation inhibition with the commercial cytotoxic compound (S)-(+)-camptothecin (Fluorochem #M01564) at a concentration of 10 μM was included on each plate for assay quality control. Some of the test compounds of the present invention may have been obtained and applied as their salt forms.
(§2) The assays were performed in duplicate or more replicates of independent single experiments each containing a three- to six-fold replicate for every condition. […]

MDA-MB-231 cells = assay: alamarBlue proliferation assay with MDA-MB-231 cells (glucose-free Leibovitz's L-15 medium)
HPEKp cells = assay: proliferation assay with human epidermal keratinocyte progenitors (HPEKp), selectivity versus MDA-MB-231
RVH-421 cells = assay: alamarBlue proliferation assay with RVH-421 cells (glucose-free L-15 medium); details: read-out: Activity on RVH-421: IC50, Leibovitz's L-15 medium, 10% FBS, 0% CO2
Source text: as §1, §2

A-549 cells = assay: alamarBlue proliferation assay with A-549 cells; details: read-out: Activity on A-549: IC50, DMEM medium, 10% FBS
A-375 cells = assay: alamarBlue proliferation assay with A-375 cells; details: read-out: Activity on A-375: IC50, DMEM medium, 10% FBS
Source text: as §1, §2

BHY cells = assay: alamarBlue proliferation assay with BHY cells; details: read-out: Activity on BHY: IC50, DMEM medium, 10% FBS
LL/2 cells = assay: alamarBlue proliferation assay with LL/2 cells; details: read-out: Activity on LL/2: IC50; LL/2 murine Lewis lung carcinoma cells, DMEM medium, 10% FBS
HCT-116 cells = assay: alamarBlue proliferation assay with HCT-116 cells; details: read-out: Activity on HCT-116: IC50, McCoy's 5A medium, 10% FBS
NB-4 cells = assay: alamarBlue proliferation assay with NB-4 cells; details: read-out: Activity on NB-4: IC50, RPMI 1640 medium, 10% FBS
TANQUE cells = assay: alamarBlue proliferation assay with TANQUE cells; details: read-out: Activity on TANOUE: IC50, RPMI 1640 medium, 10% FBS
SW-1353 cells = assay: alamarBlue proliferation assay with SW-1353 cells (glucose-free L-15 medium); details: read-out: Activity on SW-1353: IC50, Leibovitz's L-15 medium, 10% FBS, 0% CO2
Source text: as §1, §2

[1] = test system: mitochondrial transmembrane potential Δψm in A-549 cells; assay: mitochondrial activity assay (TMRE staining, mitochondrial transmembrane potential) on A-549 cells; details: A-549 cells, compounds at 10 μM, 2 h 40 min, TMRE staining, relative to DMSO = 1.0
Procedure: A decrease in mitochondrial function can be assessed by the relative quantification of the mitochondrial transmembrane potential Δψm. The Adm-decreasing activities of compounds falling under general formula (I) were investigated with tetramethylrhodamine ethyl ester (TMRE) staining on A-549 cells. Access and cultivation method of A-549 cells are as described above. To this end, according cells were seeded into 96-well plates suitable for fluorescence assays (Greiner Bio-One, #655090) at a cell number of 45'000 cells per well. Cells were incubated over night at 37 °C and 5% CO2. This was followed by a complete medium change with 100 μL per well of fresh culture medium pre-warmed to 37 °C. Cells were further incubated at 37 °C and 5% CO2 for three hours. Then the cells were treated with compounds at 10 μM final concentration by adding 100 μL per well of a 2× compound working solution of 1:50 pre-diluted compound DMSO stock-solutions in Hank's Balanced Salt Solution (HBSS, Fisher Scientific, Gibco™ #14025). Cells were incubated for 2 hours and 40 minutes at 37 °C and 5% CO2. Then cells were treated with TMRE (AAT-Bioquest, #22220) at 300 nM final concentration by adding 20 μL per well of a 10×TMRE working solution from a 1:5 pre-diluted TMRE DMSO stock-solution in H2O (Water For Injection, WFI, Fisher Scientific, Gibco™ #A12873). Cells were incubated for further 20 minutes at room temperature in the dark, gently shaking on an orbital shaker (IKA, MTS 2/4 Digital Shaker, shaking at 300 rpm). Extracellular TMRE signal was quenched by adding 20 μL per well of a 1.6 mM solution of Brilliant Black BN (Carl Roth, #7643) in H2O. Cells were further incubated for 60 min at room temperature. Then the readout was taken with a multi-well plate-reader (Tecan Spark®) in the fluorescence mode using a filter for excitation at 535 nm (band width 25 nm) and for emission at 595 nm (band width 35 nm) without plate lid. Treatment for strong decrease in Δψm with the commercial mitochondrial uncoupler compound 2,4-dinitrophenol (DNP, Sigma Aldrich-Merck #34334) at a final concentration of 50 μM was included on every plate for assay quality control.
The assays were performed in two independent biological replicates, each containing three technical replicates for every condition. For every individual plate, the measured fluorescence intensity values of the conditions with compound treatment were normalized against the corresponding equally weighted arithmetic mean of the fluorescence intensity values of the three DMSO treated control wells in order to obtain the relative values to a reference level of 1.0.
The weighted arithmetic mean and the combined standard deviation as defined in the present invention was calculated for each compound as described above. The DNP control decreased the relative mitochondrial transmembrane potential Δψm in A-549 cells to 0.2.

HL-60 cells = assay: alamarBlue proliferation assay with HL-60 cells; details: read-out: Activity on HL-60: IC50, RPMI 1640 medium, 10% FBS
Source text: as §1, §2

SW-948 cells = assay: alamarBlue proliferation assay with SW-948 cells (glucose-free L-15 medium); details: read-out: Activity on SW-948: IC50, Leibovitz's L-15 medium, 10% FBS, 0% CO2
Source text: as §1, §2

NCI-H460 cells = assay: alamarBlue proliferation assay with NCI-H460 cells; details: read-out: Activity on NCI-H460: IC50, RPMI 1640 medium, 10% FBS
Source text: as §1, §2

[2] = read-out: Activity (MDA): antiproliferative activity on MDA-MB-231 cells, IC50 category, MDA-MB-231 cells cultivated in glucose-free Leibovitz's L-15 medium
[3] = read-out: Activity on MDA-MB-231 (IC50), glucose-free Leibovitz's L-15, 10% FBS, day 5, alamarBlue
[4] = read-out: Activity (HPEK): antiproliferative activity on HPEK cells, IC50 category, HPEK cells cultivated in CnT-Prime medium

Structure (SMILES) | IC50 (MDA-MB-231 cells; [2]) [µM] | IC50 (MDA-MB-231 cells; [3]) [µM] | IC50 (HPEKp cells; [4]) [µM] | IC50 (RVH-421 cells) [µM] | IC50 (A-549 cells) [µM] | IC50 (HL-60 cells) [µM] | IC50 (SW-948 cells) [µM] | IC50 (NCI-H460 cells) [µM] | also measured
C#CCN1CCN(C(=O)c2ccc(Oc3ccc(C4CCC5(CC4)N=N5)cc3CO)cc2)CC1 | < 5 | ≤ 5 | > 10 | ≤ 5 |  |  |  |  | IC50 (HEP-G2 cells): ≤ 20 µM; IC50 (A-431 cells): ≤ 20 µM
CC(=O)N(c1ccc(C(=O)N2CCN(Cc3ccccc3)CC2)cc1)c1ccc(C2CCC3(CC2)OCCO3)cc1 |  | ≤ 20 |  | ≤ 20 |  |  |  |  | 
COC1CCC(c2ccc(Oc3ccc(C(=O)N4CCN(Cc5ccc(Cl)cc5)CC4)cc3)cc2)CC1 (stereo not drawn) |  | ≤ 0.2 |  |  | ≤ 1 |  |  |  | IC50 (MDA-MB-231 cells; read-out: Activity (MDA), MDA-MB-231 cells, antiproliferative activity, class by IC50): < 1 µM; IC50 (A-375 cells): ≤ 0.2 µM; IC50 (HPEKp cells; read-out: Activity (HPEK), HPEK cells (HPEKp), antiproliferative activity, class by IC50): < 5 µM
CC(=O)Nc1ccc(CN2CCN(C(=O)c3ccc(Oc4ccc(C5CCC6(CC5)OCCO6)cc4CO)cc3)CC2)cc1 | < 1 | ≤ 0.2 | < 10 |  | ≤ 0.2 |  |  |  | IC50 (BHY cells): ≤ 0.2 µM; IC50 (LL/2 cells): ≤ 5 µM; IC50 (HCT-116 cells): ≤ 0.2 µM; IC50 (NB-4 cells): ≤ 1 µM; IC50 (TANQUE cells): ≤ 1 µM; IC50 (SW-1353 cells): ≤ 0.2 µM; Activity: relative mitochondrial transmembrane potential Δψm [1]: Δψm ≤0.7
COc1ccc(CN2CCN(C(=O)c3ccc(Oc4ccc(C5CCC6(CC5)SCCCS6)cc4C=O)cn3)CC2)cc1 |  |  |  |  |  |  |  |  | IC50 (A-375 cells): ≤ 0.2 µM
O=C(c1ccc(Oc2ccc(C3CCC4(CC3)OCCO4)cc2CO)cc1)N1CCN(Cc2ccc3ncccc3c2)CC1 | < 1 | ≤ 0.2 | < 10 | ≤ 0.2 |  | ≤ 5 | ≤ 1 | ≤ 5 | 
O=C(c1ccc(Oc2ccc(C3CCC4(CC3)OCCO4)cc2CO)cc1)N1CC2CC1CN2Cc1ccccc1 (stereo not drawn) | < 1 | ≤ 1 | > 10 | ≤ 5 | ≤ 5 | ≤ 5 | ≤ 5 | ≤ 20 | IC50 (SW-1353 cells): ≤ 5 µM
Cn1cccc1CN1CCN(C(=O)c2ccc(Oc3ccc(C4CCC5(CC4)OCCO5)cc3CO)cc2)CC1 |  | ≤ 0.2 |  | ≤ 1 |  | ≤ 5 | ≤ 5 | ≤ 5 | 
CN(c1ccc(C(=O)N2CCN(Cc3ccccc3)CC2)cc1)c1ccc(C2CCC3(CC2)OCCO3)cc1 | < 5 | ≤ 5 | < 10 | ≤ 5 |  | ≤ 5 | ≤ 5 | ≤ 5 | IC50 (BHY cells): ≤ 5 µM; IC50 (HCT-116 cells): ≤ 5 µM; IC50 (NB-4 cells): ≤ 5 µM; IC50 (TANQUE cells): ≤ 5 µM
